Values quoted from earlier work as cited in patent US8871753B2, “Macrocyclic compounds and their use as kinase inhibitors” (Incyte Corporation, priority 2008, dated 2014).

Conditions: patients; cited from earlier work

For “Erbitux: "new targeted anti-cancer agents such as Iressa, Erbitux, and Tarceva has induced acneiform rash"”, the acneiform rash is given as “induced acneiform rash with some patients”.
